Test system: human colorectal tumor
Conditions: mouse, in vivo, iv
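Note: human colorectal tumors grown on the hind legs of athymic nude mice, imaged by micro-PET/CT 21 to 28 days post inoculation, once tumors reached roughly 0.5 cm across.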

^18F-FDG
average tumor/muscle (T/M) count density ratios, approximate range: 0.8-0.9

Source: patent US20180296707A1, “PHARMACEUTICAL FORMULATION AND METHOD OF PREPARING THE SAME” (SeeCure Taiwan Co., Ltd., priority 2017, published 2018)
